Consider one molecule from patent EP2132185B1, “PYRIMIDINYL-PIPERAZINES USEFUL AS DOPAMINE D3/D2 RECEPTOR LIGANDS” (Richter Gedeon Nyrt., priority 2007, dated 2008).

By UniProt entry, the sequences of proteins in these tests, tags left out.
UniProt P61169, whole entry: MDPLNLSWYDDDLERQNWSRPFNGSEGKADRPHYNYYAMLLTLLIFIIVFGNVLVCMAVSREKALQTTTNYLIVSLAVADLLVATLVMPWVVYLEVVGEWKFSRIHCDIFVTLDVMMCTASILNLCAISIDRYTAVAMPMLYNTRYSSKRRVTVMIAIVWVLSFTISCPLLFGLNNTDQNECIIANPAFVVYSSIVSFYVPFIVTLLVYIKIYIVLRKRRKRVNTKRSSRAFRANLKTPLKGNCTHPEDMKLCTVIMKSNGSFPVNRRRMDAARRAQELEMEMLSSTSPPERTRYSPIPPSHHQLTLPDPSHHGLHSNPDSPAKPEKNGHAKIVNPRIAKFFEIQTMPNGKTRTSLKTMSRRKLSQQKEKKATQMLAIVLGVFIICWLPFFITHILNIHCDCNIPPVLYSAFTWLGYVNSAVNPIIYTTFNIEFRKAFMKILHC

The experiment concerns the target T1, D2 receptor (Rattus norvegicus, UniProt P61169).
T1 construct: on rat brain striatal membrane preparation; from tissue; host or cells: rat brain striatum membranes
As to the kind of experiment: D2 receptor binding ([3H]spiperone, rat brain striatal membrane preparation).

Consider `CNc1nc(Cl)c(Cl)c(N2CCN(CC[C@H]3CC[C@H](NC(=O)N4CCOCC4)CC3)CC2)n1` [Compound 7, trans-morpholine-4-carboxylic acid (4-{2-[4-(5,6-dichloro-2-methylamino-pyrimidin-4-yl)-piperazin-1-yl]-ethyl}-cyclohexyl)-amide], for which the “D2 Sel. (D2/D3 selectivity, i.e., Ki for D2 receptor divided by Ki for D3 receptor)” value worked out at 7.
